{
  "source": "patent US20250382268A1",
  "about": "“METHODS AND COMPOSITIONS FOR SELECTIVELY INHIBITING PATHOGENIC MICROBES” (priority 2019, published 2025)",
  "system": "pathogens (SA, TR) and skin commensals (RM, SE)",
  "settings": "Table 1",
  "data": [
    {"smiles": "Oc1ccc(Sc2c[nH]c3ccccc23)cc1", "note": "[Compound 156I, 4-((1H-indol-3-yl)thio)phenol]", "values": [
      {"measurement": "Selectivity Pathogens to commensal", "value": ">4"}
    ]}
  ]
}
